These are literature values, as cited in PubChem BioAssay AID977610.

As usually defined, the Ki is the dissociation constant of the complex between target and ligand, obtained from inhibition or displacement.

For the data set, the target named is Enteroccocus faecalis thymidylate synthase (EfTS). Kind of data set: PubChem AID 977610. The conditions noted are these: PDB protein-ligand complexes, literature Ki; protein: Enteroccocus faecalis thymidylate synthase (EfTS); PDB entry 3UWL.

Take `Nc1nc2c(c(=O)[nH]1)N(C=O)[C@@H](CNc1ccc(C(=O)N[C@@H](CCC(=O)O)C(=O)O)cc1)CN2`: the Ki is 208 µM.
